These are literature values, as cited in US20060205733A1, “Endothelin a receptor antagonists in combination with phosphodiesterase 5 inhibitors and uses thereof” (Encysive Pharmaceuticals, priority 2004, published 2006).

Sequences of proteins named here, by UniProt entry; tags and fusion partners are left off. Residues count along the entry.
UniProt P25101, 21-427 limits assumed: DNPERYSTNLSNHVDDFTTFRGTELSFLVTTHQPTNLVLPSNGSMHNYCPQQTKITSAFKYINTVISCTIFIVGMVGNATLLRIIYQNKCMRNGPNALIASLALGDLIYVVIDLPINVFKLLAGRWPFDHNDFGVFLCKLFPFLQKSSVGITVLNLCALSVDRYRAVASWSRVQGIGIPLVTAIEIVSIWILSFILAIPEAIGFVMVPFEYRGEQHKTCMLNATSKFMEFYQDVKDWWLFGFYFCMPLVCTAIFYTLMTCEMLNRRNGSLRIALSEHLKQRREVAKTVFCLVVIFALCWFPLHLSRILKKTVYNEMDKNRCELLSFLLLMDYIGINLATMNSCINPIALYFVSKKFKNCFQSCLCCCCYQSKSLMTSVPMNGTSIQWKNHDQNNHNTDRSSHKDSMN
UniProt P24530, 27-442 limits assumed: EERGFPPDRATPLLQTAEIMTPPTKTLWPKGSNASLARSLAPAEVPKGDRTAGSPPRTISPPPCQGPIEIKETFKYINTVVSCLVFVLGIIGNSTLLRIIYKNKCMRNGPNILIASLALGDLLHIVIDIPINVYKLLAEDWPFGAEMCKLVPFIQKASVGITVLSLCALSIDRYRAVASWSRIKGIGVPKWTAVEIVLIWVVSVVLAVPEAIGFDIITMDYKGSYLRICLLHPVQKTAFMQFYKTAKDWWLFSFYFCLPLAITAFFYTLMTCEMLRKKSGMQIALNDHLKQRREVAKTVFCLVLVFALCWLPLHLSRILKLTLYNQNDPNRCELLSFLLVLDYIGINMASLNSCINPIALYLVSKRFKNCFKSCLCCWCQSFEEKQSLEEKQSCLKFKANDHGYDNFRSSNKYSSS

One data set deals with ETA (Homo sapiens, UniProt P25101). The note with it: ETA versus ETB, Table 2; cited from earlier work.
The next data set has as its target ETB (Homo sapiens, UniProt P24530). Particulars: read-out: Binding K1 (nM) to ETB; cited from earlier work.

`CC(C)C[C@@H]1NC(=O)[C@@H](c2cccs2)NC(=O)[C@H](CC(=O)O)NC(=O)[C@H](CC(=O)N2CCN(c3ccccc3)CC2)NC(=O)[C@@H](CC(=O)O)NC(=O)[C@@H](Cc2c[nH]c3ccccc23)NC1=O`: the Selectivity on ETA was 454. Besides, the Ki at ETB was 690 nM.
